Results from US20260337245A1, “POLYPEPTIDE OR ANALOG THEREOF AND USE THEREOF” (Shenzhen Bay Laboratory, priority 2024, published 2026).

What was measured:
CTR = molecular target: T1, CTR (Homo sapiens, UniProt P30988); test: HTRF cAMP assay, CTR; format: cell-based; details: HEK293/pGM-CREB-L-Luc/CTR pool, read-out: IC50 of receptor CTR
T1 construct: expressed in transfected cells
T1 sequence (P30988 25-474): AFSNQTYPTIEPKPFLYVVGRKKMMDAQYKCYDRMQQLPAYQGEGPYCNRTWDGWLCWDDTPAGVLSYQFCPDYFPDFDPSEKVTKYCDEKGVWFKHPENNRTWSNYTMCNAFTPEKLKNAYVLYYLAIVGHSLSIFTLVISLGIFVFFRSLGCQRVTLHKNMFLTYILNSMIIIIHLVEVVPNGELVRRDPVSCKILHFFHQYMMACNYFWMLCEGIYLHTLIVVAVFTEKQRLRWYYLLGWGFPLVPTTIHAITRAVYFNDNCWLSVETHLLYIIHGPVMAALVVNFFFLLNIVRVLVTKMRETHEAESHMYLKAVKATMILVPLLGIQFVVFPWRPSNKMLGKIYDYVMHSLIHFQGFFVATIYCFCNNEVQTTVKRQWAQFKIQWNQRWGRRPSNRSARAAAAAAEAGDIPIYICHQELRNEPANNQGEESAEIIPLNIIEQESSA
From the text: 2. The polypeptide derivatives prepared in Example 1 and Example 2 of the present disclosure can bind to the target AMYR and CTR receptors on the cell membrane, activate the receptors and release cAMP. Therefore, the activity of the analyte can be determined by using an HTRF (homogeneous time-resolved fluorescence) method and using a cAMP detection kit. The specific steps were as follows:
A stable transfected cell line of HEK293/pGM-CREB-L-Luc/AMY3R pool and HEK293/pGM-CREB-L-Luc/CTR pool was constructed. The polypeptide derivatives (i.e., AMY-001 to AMY-041) prepared in Examples 1 and 2 were subjected to 5-fold serial dilution from a maximum of 1000 nM to prepare a dilution series containing 8 to 11 concentration gradients. Cagrilintide and sCT were selected as positive controls for testing, and a dilution series was prepared according to the same method for testing. The test cell lines were selected and treated with cAMP-specific trypsin for digestion, and then suspended with 3 mL of serum-free DMEM medium by pipetting, and the cells were counted. […] A HTRF value was determined by a chemiluminescence microplate reader, and the results were recorded. […]

[1] = background; cited from earlier work

EC50 (CTR): 8.7 pM
Structure (SMILES): CC[C@H](C)[C@H](NC(=O)[C@@H]1CCCN1C(=O)CNC(=O)[C@H](Cc1ccccc1)NC(=O)[C@H](CC(N)=O)NC(=O)[C@H](CC(N)=O)NC(=O)[C@H](CO)NC(=O)[C@H](CO)NC(=O)[C@H](Cc1c[nH]cn1)NC(=O)[C@@H](NC(=O)[C@H](CC(C)C)NC(=O)[C@H](Cc1ccccc1)NC(=O)[C@H](CC(N)=O)NC(=O)[C@H](C)NC(=O)[C@H](CC(C)C)NC(=O)[C@H](CCCNC(=N)N)NC(=O)[C@H](CCC(N)=O)NC(=O)[C@@H](NC(=O)[C@H](C)NC(=O)[C@@H]1CSSC[C@H](NC(=O)[C@@H](N)CCCCN)C(=O)N[C@@H](CC(N)=O)C(=O)N[C@@H]([C@@H](C)O)C(=O)N[C@@H](C)C(=O)N[C@@H]([C@@H](C)O)C(=O)N1)[C@@H](C)O)C(C)C)C(=O)N[C@@H](CC(C)C)C(=O)N1CCC[C@H]1C(=O)N1CCC[C@H]1C(=O)N[C@H](C(=O)N[C@@H](CC(N)=O)C(=O)N[C@H](C(=O)NCC(=O)N[C@@H](CO)C(=O)N[C@@H](CC(N)=O)C(=O)N[C@H](C(=O)N[C@@H](Cc1ccc(O)cc1)C(N)=O)[C@@H](C)O)C(C)C)[C@@H](C)O [Pramlintide, reference compound]
in-vivo half-life [1]: less than 1 hour
